Earlier results, collected in PubChem BioAssay AID1811.

How the values were obtained:
Assay in all cases: PubChem AID 1811
glycogen phosphorylase = settings: PDB complex binding affinities from literature; Ki when reported
[1] = biological target: glutamate [nmda] receptor; settings: PDB complex binding affinities from literature; Ki when reported
trypsin beta = settings: PDB complex binding affinities from literature; for Kd: Kd when reported
neuraminidase = settings: PDB complex binding affinities from literature; IC50 when reported
thymidylate synthase = settings: PDB complex binding affinities from literature
alpha-mannosidase ii = settings: PDB complex binding affinities from literature; IC50 when reported
carbonic anhydrase ii = settings: PDB complex binding affinities from literature; Kd when reported
penicillopepsin = settings: PDB complex binding affinities from literature; Ki when reported
[2] = biological target: urokinase-type plasminogen activator; settings: PDB complex binding affinities from literature; Ki when reported
thrombin alpha = settings: PDB complex binding affinities from literature
odorant-binding protein = settings: PDB complex binding affinities from literature; IC50 when reported
phospholipase a2 = settings: PDB complex binding affinities from literature
[3] = biological target: nucleoside diphosphate kinase; settings: PDB complex binding affinities from literature; Kd when reported
transthyretin = settings: PDB complex binding affinities from literature; Kd when reported
glycogen phosphorylase b = settings: PDB complex binding affinities from literature
[4] = biological target: aspartate aminotransferase; settings: PDB complex binding affinities from literature; Kd when reported
arginase 1 = settings: PDB complex binding affinities from literature; Ki when reported
glutamate receptor 2 = settings: PDB complex binding affinities from literature; IC50 when reported
acetylcholinesterase = settings: PDB complex binding affinities from literature; for Ki: Ki when reported
mta/sah nucleosidase = settings: PDB complex binding affinities from literature; Ki when reported
[5] = biological target: oligo-peptide binding protein; settings: PDB complex binding affinities from literature; Kd when reported
[6] = biological target: purine nucleoside phosphorylase; settings: PDB complex binding affinities from literature; Ki when reported
[7] = biological target: cell division protein kinase 2; settings: PDB complex binding affinities from literature; IC50 when reported
[8] = biological target: isopentenyl diphosphate delta-isomerase; settings: PDB complex binding affinities from literature
[9] = biological target: calmodulin-sensitive adenylate cyclase; settings: PDB complex binding affinities from literature; Ki when reported

In the case of `OC[C@H]1O[C@@H]2O[C@H]3[C@H](O)[C@@H](O)[C@@H](O[C@H]4[C@H](O)[C@@H](O)[C@@H](O[C@H]5[C@H](O)[C@@H](O)[C@@H](O[C@H]6[C@H](O)[C@@H](O)[C@@H](O[C@H]7[C@H](O)[C@@H](O)[C@@H](O[C@H]8[C@H](O)[C@@H](O)[C@@H](O[C@H]9[C@H](O)[C@@H](O)[C@@H](O[C@H]1[C@H](O)[C@H]2O)O[C@@H]9CO)O[C@@H]8CO)O[C@@H]7CO)O[C@@H]6CO)O[C@@H]5CO)O[C@@H]4CO)O[C@@H]3CO`, the Ki (glycogen phosphorylase) is listed as 7400 µM.

For `NC1(C(=O)O)CCC1`, the Ki [1] is listed as 831 µM.

For `COC(=O)C1CCN(C(=O)[C@H](Cc2cccc(C(=N)N)c2)NS(=O)(=O)c2ccc3ccccc3c2)CC1`, the Kd (trypsin beta) is listed as 0.028 µM.

In the case of `CCCN(CCc1ccccc1)C(=O)[C@@H]1OC(C(=O)O)=C[C@H](N)[C@H]1NC(C)=O`, the IC50 (neuraminidase) is given as 0.002 µM.

For `Cc1cn([C@H]2C[C@H](O)[C@@H](COP(=O)(O)O)O2)c(=O)[nH]c1=O`, the Kd (thymidylate synthase; Kd when reported) is given as 3.27 µM.

In the case of `Cc1nc2ccc3ccc(CNc4ccc5c(c4)CN([C@@H](CCC(=O)O)C(=O)O)C5=O)cc3c2c(=O)[nH]1`, the Ki (thymidylate synthase; Ki when reported) is given as 0.016 µM.

For `O[C@H]1[C@H]2[C@H](O)CCCN2C[C@H]1O`, the IC50 (alpha-mannosidase ii) is listed as 0.02 µM.

For `NS(=O)(=O)c1ccc(CCNC(=S)Nc2ccc(-c3c4ccc(=O)cc-4oc4cc(O)ccc34)c(C(=O)O)c2)cc1`, the Kd (carbonic anhydrase ii) is given as 0.00064 µM.

In the case of `CNC(=O)C(F)(F)[C@H](O)[C@H](CC(C)C)NC(=O)[C@@H](NC(=O)[C@@H](NC(=O)CC(C)C)C(C)C)C(C)C`, the Ki (penicillopepsin) is listed as 0.01 µM.

For `COc1ccc2ccc(C(=N)N)cc2c1C1CNN(S(C)(=O)=O)C1` (configuration not stated), the Ki [2] is given as 0.63 µM.

In the case of `COC(=O)[C@H](Cc1ccccc1)OP(=O)(O)[C@H](CC(C)C)NC(=O)[C@@H](NC(=O)[C@@H](NC(=O)CC(C)C)C(C)C)C(C)C`, the Ki (penicillopepsin) is listed as 0.0028 µM.

For `Nc1ccc2cc3ccc(N)cc3nc2c1`, the Kd (thrombin alpha; Kd when reported) is listed as 530 µM.

In the case of `Cc1ccc(C(C)C)c(O)c1`, the IC50 (odorant-binding protein) is listed as 2.5 µM.

In the case of `CC(=O)N1CCN(C(=O)[C@H](Cc2cccc(C(=N)N)c2)NS(=O)(=O)c2ccc3ccccc3c2)CC1`, the Kd (trypsin beta) is given as 0.04 µM.

In the case of `CCCC[C@H]1C(=O)N(c2ccccc2)N(c2ccc(O)cc2)C1=O`, the Kd (phospholipase a2; Kd when reported) is listed as 0.064 µM.

In the case of `Nc1ncnc2c1ncn2[C@@H]1O[C@H](COP(=O)(O)OS(=O)(=O)O)[C@@H](OP(=O)(O)O)[C@H]1O`, the Kd [3] is given as 14 µM.

In the case of `O=C(O)c1ccccc1Nc1cccc(C(F)(F)F)c1`, the Kd (transthyretin) is given as 0.03 µM.

In the case of `COc1ccc(C(=O)O)cc1`, the Ki (phospholipase a2; Ki when reported) is given as 18 µM.

For `O=C1NC(=O)[C@@]2(N1)O[C@H](CO)[C@@H](O)[C@H](O)[C@H]2O`, the Ki (glycogen phosphorylase b; Ki when reported) is listed as 3 µM.

For `COC(=O)[C@H](Cc1ccccc1)OP(=O)(O)[C@H](CC(C)C)NC(=O)[C@H](CC(N)=O)NC(=O)[C@@H](NC(=O)CC(C)C)C(C)C`, the Ki (penicillopepsin) is given as 0.042 µM.

For `O=C(O)CCC(=O)O`, the Kd [4] is listed as 2400 µM.

In the case of `CC(C)[C@H](N)C(=O)O`, the Ki (arginase 1) is listed as 3600 µM.

For `CC(C)(C)c1o[nH]c(=O)c1C[C@H](N)C(=O)O`, the IC50 (glutamate receptor 2) is given as 3.5 µM.

For `Oc1c(Br)cc(Br)cc1Br`, the Kd (transthyretin) is listed as 0.023 µM.

In the case of `CC1=C[C@H]2Cc3[nH]c(=O)ccc3[C@]3(C1)NCCC[C@H]23`, the Ki (acetylcholinesterase) is listed as 0.334 µM.

For `CSC[C@H]1CN(Cc2c[nH]c3c(N)ncnc23)C[C@@H]1O`, the Ki (mta/sah nucleosidase) is listed as 2 pM.

In the case of `Cc1ccc(S(=O)(=O)N[C@@H](Cc2cccc(C(=N)N)c2)C(=O)N2CCCCC2)cc1`, the Ki (trypsin beta; Ki when reported) is given as 1.2 µM.

In the case of `NC(=O)c1ncn([C@@H]2O[C@H](COP(=O)(O)OP(=O)(O)OP(=O)(O)O)[C@@H](O)[C@H]2O)n1`, the Kd [3] is listed as 24 µM.

For `O=c1ccc2c([nH]1)CCC[C@H]2NCCCCCCCCCCNc1c2c(nc3ccccc13)CCCC2`, the IC50 (acetylcholinesterase; IC50 when reported) is listed as 0.0088 µM.

For `NCCCC[C@H](NC(=O)[C@H](CCCN=C(N)N)NC(=O)[C@@H](N)CCCCN)C(=O)O`, the Kd [5] is listed as 1.2 µM.

For `N#Cc1ccc(N(Cc2ccc(OS(N)(=O)=O)c(Br)c2)n2cnnc2)cc1`, the Kd (carbonic anhydrase ii) is given as 0.454 µM.

In the case of `O=P(O)(O)OC[C@H]1O[C@H](O)[C@H](O)[C@@H](O)[C@@H]1O`, the Kd (glycogen phosphorylase b; Kd when reported) is listed as 20 µM.

For `O=C(O)c1cc(=O)c2c(Cl)cc(Cl)cc2[nH]1`, the Ki [1] is given as 0.54 µM.

For `O=c1[nH]cnc2c(CN3C[C@H](CO)[C@@H](O)C3)c[nH]c12`, the Ki [6] is listed as 0.0013 µM.

For `CNS(=O)(=O)Cc1ccc(N=Nc2c(O)[nH]c3ccc4ncsc4c23)cc1`, the IC50 [7] is listed as 0.0057 µM.

For `Nc1ncnc2c1ccn2[C@@H]1O[C@H](CO)[C@@H](O)[C@H]1O`, the Ki [6] is given as 120 µM.

For `C/C(=C\COP(=O)(O)OP(=O)(O)O)CO`, the IC50 ([8]; IC50 when reported) is listed as 50 µM.

In the case of `NC1(C(=O)O)CC1`, the Ki [1] is listed as 4.8 µM.

For `CNC(=O)C(F)(F)C(O)(O)[C@H](CC(C)C)NC(=O)[C@@H](NC(=O)[C@@H](NC(=O)CC(C)C)C(C)C)C(C)C`, the Ki (penicillopepsin) is listed as 0.001 µM.

For `N[C@@H]1CONC1=O`, the Ki [1] is listed as 241 µM.

In the case of `N=C(N)c1ccc([C@H]2[C@H]3C(=O)N(Cc4ccc(F)cc4)C(=O)[C@H]3[C@@H]3CCCN32)cc1`, the Ki (thrombin alpha; Ki when reported) is given as 0.057 µM.

In the case of `C[C@](O)(CBr)CCOP(=O)(O)OP(=O)(O)O`, the Ki ([8]; Ki when reported) is listed as 1.4 µM.

For `Nc1ncnc2c1ncn2[C@@H]1O[C@H](COP(=O)(O)CP(=O)(O)OP(=O)(O)O)[C@@H](O)[C@H]1O`, the Ki [9] is listed as 850 µM.

For `CCC1=C[C@@H]2Cc3nc4cc(Cl)ccc4c(N)c3[C@H](C1)C2`, the Ki (acetylcholinesterase) is given as 0.00013 µM.

In the case of `O=c1[nH]cnc2c([C@@H]3O[C@H](CO)[C@@H](O)[C@H]3O)[nH]nc12`, the Ki [6] is listed as 5 µM.

In the case of `Nc1ncnc2c1ncn2CCOCP(=O)(O)OP(=O)(O)OP(=O)(O)O`, the Ki [9] is listed as 0.027 µM.

For `N=C(N)c1ccc(CNC(=O)[C@H](CO)NC(=O)[C@@H](CO)NS(=O)(=O)Cc2ccccc2)cc1`, the Ki [2] is given as 0.02 µM.
